Measured affinities in a library of Ab-14 heavy chain variants

Source: Engelhart et al. 2022 (doi:10.1038/s41597-022-01779-4), MIT Lincoln Laboratory and A-Alpha Bio; data file from the FLAb repository.

Target peptide (SARS-CoV-2 spike, HR2 region): PDVDLGDISGINAS

Parent: Ab-14, a human scFv built as VH, three GGGGS repeats, VL. Only the CDRs of the heavy chain vary.
VH: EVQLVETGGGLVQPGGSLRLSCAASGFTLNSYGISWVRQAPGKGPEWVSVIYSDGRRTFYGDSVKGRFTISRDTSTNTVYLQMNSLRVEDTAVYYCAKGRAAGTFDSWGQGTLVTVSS
VL: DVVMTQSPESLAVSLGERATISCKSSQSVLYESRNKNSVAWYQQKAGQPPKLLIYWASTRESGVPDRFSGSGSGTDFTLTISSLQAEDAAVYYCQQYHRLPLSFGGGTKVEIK

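Library AAYL49 holds single substitutions and randomly drawn double and triple substitutions in the CDRs. In AlphaSeq, yeast of one mating type display the scFv and yeast of the other type display the target. Binding brings cells together so that they mate, and sequencing counts the barcode pairs among the diploids. A regression on co-assayed BCL2-family reference pairs converts the normalised counts of each replicate to an apparent Kd. Mating was done three times.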

Substitutions are numbered in sequence along the VH above, starting at 1 (not Kabat).
Every variant below is changed at A101 of the VH (sequential numbering).
Scale: log10 of Kd in nM, estimated from mating counts; low values are strong binders.
An entry "ND" has no value in the source: the pair was not observed among the diploids in that replicate. This suggests poor binding but is not conclusive.

- Y32K/T58I/A101H = 4.52, 5.11, ND
- Y60D/G61T/A101Y = 2.47, 2.75, 2.85
- G55W/G99P/A101M = ND, ND, ND
- S35R/S63M/A101S = ND, ND, ND
- D54E/A101I/T104W = ND, 2.86, ND
- R56M/A101E = 0.48, 0.56, 0.68
- T28I/A101P = 2.75, 3.04, 4.97
- N30P/Y32C/A101F = 4.19, 2.37, 2.78
- A101E/S107N = 0.03, 0.28, 0.13
- T28W/A101V/F105H = ND, ND, ND
- Y32V/I34K/A101W = ND, ND, ND
- R100N/A101N = 0.87, 1.04, 1.05
- S63G/K65Q/A101L = 0.96, 0.89, 0.94
- G55Q/R100T/A101P = ND, ND, ND
- N30R/F59P/A101L = ND, ND, ND
- F59C/A101F/S107T = 3.91, 3.68, 2.52
- I34C/A101D/A102N = 4.70, 3.96, 4.19
- F27V/S35P/A101D = ND, ND, ND
- A101S/D106R = 0.95, 0.92, 1.38
- T28A/A101Q = ND, ND, ND
- S31Y/Y32T/A101T = 1.49, 1.59, 1.73
- Y52I/G55I/A101S = 4.13, ND, ND
- F27I/N30S/A101T = 1.17, 1.28, 1.24
- S35L/A101T = 3.31, ND, 4.05
- F59M/A101D/F105D = 1.46, 1.85, 1.89
- S31R/V50Y/A101N = 3.26, ND, ND
- Y32I/D54M/A101L = ND, ND, 4.70
- Y52C/A101Q/S107G = ND, ND, ND
- I34F/Y60E/A101Q = ND, ND, ND
- G26A/A101S/S107Q = 2.00, 2.02, 1.98
- F27S/R100W/A101Y = 1.20, 1.25, 1.44
- F27H/D62F/A101E = 2.26, 2.92, 2.68
- A101W = 0.92, 1.15, 1.09
- S35V/D54H/A101P = 4.62, 3.95, 4.33
- I51D/T58N/A101H = ND, ND, ND
- G26R/A101N = 0.86, 0.93, 0.85
- S31E/G61T/A101F = -0.30, 0.09, -0.13
- V50K/A101T/S107H = ND, ND, ND
- R56C/A101T/F105N = ND, ND, ND

Excerpt, the first 6 entries:

{"changes": "Y32K/T58I/A101H", "log10 Kd (nM) by replicate": "4.52, 5.11, ND"}
{"changes": "Y60D/G61T/A101Y", "log10 Kd (nM) by replicate": "2.47, 2.75, 2.85"}
{"changes": "G55W/G99P/A101M", "log10 Kd (nM) by replicate": "ND, ND, ND"}
{"changes": "S35R/S63M/A101S", "log10 Kd (nM) by replicate": "ND, ND, ND"}
{"changes": "D54E/A101I/T104W", "log10 Kd (nM) by replicate": "ND, 2.86, ND"}
{"changes": "R56M/A101E", "log10 Kd (nM) by replicate": "0.48, 0.56, 0.68"}

Three control strains display no target. For library AAYL49, 15% of the pairings with them gave a signal, with a median of 4.06 and one signal in twenty below 2.83, so weak values seen in few replicates may be background.
In this assay the parent's reference entry averaged 0.65; its copy inside this library read 4.11 (one replicate of three).